Reference: patent publication US5162315A, “Penetration enhancers” (priority 1989, dated 1992)

Assay: In vitro permeation of isosorbide dinitrate (ISDN) through human stratum corneum in diffusion cells (Example 8)
Conditions: 0.7% ISDN cream, enhancer 2% (Control: no enhancer), about 500 mg applied, normal saline pH 7.2-7.4, triplicate

## O=[N+]([O-])O[C@H]1CO[C@H]2[C@@H]1OC[C@H]2O[N+](=O)[O-]
  Average Cumulative Amount of ISDN in Micrograms permeating over 48 hours: 535.0 ± 25 Micrograms
